From ChEMBL document CHEMBL1135075, “Synthesis and biological evaluation of imidazol-2-one and 2-cyanoiminoimidazole derivatives: novel series of PDE4 inhibitors” (Bioorg Med Chem Lett, 2002) come the findings set out here.

Chains of the proteins cited; added tags and fusions are not shown. Lines headed by an entry give the natural chain unless they say otherwise; changes in a name come on top.
UniProt Q07343: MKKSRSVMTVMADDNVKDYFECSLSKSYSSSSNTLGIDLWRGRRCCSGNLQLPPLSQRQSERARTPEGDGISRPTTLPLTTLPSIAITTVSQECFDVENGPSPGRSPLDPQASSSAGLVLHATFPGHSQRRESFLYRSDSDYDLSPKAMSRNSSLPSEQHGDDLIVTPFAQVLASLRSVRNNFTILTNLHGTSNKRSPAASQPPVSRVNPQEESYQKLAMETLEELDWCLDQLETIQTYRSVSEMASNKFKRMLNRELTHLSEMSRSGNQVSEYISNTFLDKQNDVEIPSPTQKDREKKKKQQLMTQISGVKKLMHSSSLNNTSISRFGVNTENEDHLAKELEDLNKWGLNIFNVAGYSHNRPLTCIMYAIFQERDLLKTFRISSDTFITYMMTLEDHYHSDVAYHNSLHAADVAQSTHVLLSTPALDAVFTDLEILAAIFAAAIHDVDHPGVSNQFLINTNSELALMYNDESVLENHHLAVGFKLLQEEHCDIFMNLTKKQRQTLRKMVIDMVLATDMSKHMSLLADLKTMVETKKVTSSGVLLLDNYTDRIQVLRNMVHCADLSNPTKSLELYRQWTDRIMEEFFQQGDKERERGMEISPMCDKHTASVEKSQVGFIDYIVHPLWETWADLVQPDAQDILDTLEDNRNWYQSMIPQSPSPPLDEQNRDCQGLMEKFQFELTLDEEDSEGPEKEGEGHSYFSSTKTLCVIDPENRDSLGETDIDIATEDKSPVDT

For orientation: IC50 means the concentration needed to halve the response being measured.

The target in the assay is 3',5'-cyclic-AMP phosphodiesterase 4B (Homo sapiens, UniProt Q07343). As to the kind of experiment: Inhibitory activity against recombinant phosphodiesterase 4B (PDE4B) of human mononuclear lymphocytes.

The structures appear in SMILES notation.

Turning to `COc1ccc([C@H](C)Cn2ccnc2NC#N)cc1OC1Cc2ccccc2C1`, the IC50 was found to be 57 nM.
